Biological target: PIK3CA (human) (UniProt P42336)
Test: Inhibition of PIK3CA Kinase Activity (Fluorescence Polarization Format Assay)

The chains behind the UniProt entries cited, without tags or fusion partners.
UniProt P42336, whole entry, looked up: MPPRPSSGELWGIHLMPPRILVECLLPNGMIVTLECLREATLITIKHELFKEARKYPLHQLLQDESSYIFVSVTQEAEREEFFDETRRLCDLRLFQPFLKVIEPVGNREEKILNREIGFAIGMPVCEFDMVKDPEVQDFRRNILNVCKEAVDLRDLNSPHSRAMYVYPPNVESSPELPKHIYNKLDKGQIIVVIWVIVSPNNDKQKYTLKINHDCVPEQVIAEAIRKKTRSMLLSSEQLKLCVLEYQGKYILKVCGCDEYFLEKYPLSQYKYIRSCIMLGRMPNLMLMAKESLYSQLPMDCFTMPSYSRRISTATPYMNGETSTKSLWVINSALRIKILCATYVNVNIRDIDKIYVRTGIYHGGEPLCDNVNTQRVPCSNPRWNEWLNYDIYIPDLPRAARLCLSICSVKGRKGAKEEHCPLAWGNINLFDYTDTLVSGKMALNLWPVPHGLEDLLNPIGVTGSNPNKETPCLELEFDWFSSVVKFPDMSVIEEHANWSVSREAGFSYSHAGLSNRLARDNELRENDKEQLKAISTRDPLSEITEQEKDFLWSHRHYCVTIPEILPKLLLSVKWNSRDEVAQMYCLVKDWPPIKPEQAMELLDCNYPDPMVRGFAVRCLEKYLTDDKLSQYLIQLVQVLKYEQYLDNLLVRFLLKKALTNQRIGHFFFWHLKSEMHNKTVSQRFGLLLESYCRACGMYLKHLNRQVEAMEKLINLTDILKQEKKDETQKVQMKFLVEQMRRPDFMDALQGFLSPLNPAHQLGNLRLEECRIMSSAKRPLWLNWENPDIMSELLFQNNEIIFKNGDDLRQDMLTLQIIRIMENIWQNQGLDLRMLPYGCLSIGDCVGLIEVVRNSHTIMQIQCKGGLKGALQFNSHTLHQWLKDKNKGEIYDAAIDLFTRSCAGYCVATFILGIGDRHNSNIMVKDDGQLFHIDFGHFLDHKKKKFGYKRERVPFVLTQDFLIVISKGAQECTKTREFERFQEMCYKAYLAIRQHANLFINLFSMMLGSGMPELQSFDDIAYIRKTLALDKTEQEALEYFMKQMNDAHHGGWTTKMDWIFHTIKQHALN

Row | SMILES | IC50
1 | O=C(Nc1ccncc1)Nc1ccc(-c2nc(N3CCOCC3)c3ccn(CC(F)(F)F)c3n2)cc1 | 10 nM
2 | CN(C)C1CCN(C(=O)c2ccc(NC(=O)Nc3ccc(-c4nc(N5CCOCC5)c5ccn(CC(F)(F)F)c5n4)cc3)cc2)CC1 | 6 nM

— the Kinase Knowledgebase extract (Sharma et al. 2016)
